These results are taken from paper PMC3288537 (ACS Chemical Biology, 2011).

Sequences of proteins named here, by UniProt entry; tags and fusion partners are left off. A change or cut given only in a name is not applied to a line headed by its entry.
UniProt Q9Y2R2, whole entry: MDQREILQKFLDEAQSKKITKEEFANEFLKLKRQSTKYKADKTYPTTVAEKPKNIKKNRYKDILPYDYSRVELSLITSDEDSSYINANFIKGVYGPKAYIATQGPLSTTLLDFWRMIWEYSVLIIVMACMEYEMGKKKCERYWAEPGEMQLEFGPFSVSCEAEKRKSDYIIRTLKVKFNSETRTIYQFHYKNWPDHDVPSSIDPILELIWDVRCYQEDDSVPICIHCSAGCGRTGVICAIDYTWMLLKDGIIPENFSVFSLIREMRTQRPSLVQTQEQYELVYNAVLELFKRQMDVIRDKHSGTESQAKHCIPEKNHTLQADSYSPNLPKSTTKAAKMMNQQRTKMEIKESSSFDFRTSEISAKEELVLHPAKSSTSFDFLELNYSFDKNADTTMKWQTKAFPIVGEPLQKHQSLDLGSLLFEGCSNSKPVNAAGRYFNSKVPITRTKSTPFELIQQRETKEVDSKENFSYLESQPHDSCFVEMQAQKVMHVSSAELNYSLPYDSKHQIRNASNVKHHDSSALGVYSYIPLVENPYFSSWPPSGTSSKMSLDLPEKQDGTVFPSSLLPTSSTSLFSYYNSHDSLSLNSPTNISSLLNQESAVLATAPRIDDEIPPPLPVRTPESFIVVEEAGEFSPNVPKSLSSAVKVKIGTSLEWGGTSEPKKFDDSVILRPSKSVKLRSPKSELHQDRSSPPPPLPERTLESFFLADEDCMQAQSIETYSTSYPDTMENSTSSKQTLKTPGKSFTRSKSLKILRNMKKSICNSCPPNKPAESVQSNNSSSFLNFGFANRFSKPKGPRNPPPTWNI
UniProt P29350: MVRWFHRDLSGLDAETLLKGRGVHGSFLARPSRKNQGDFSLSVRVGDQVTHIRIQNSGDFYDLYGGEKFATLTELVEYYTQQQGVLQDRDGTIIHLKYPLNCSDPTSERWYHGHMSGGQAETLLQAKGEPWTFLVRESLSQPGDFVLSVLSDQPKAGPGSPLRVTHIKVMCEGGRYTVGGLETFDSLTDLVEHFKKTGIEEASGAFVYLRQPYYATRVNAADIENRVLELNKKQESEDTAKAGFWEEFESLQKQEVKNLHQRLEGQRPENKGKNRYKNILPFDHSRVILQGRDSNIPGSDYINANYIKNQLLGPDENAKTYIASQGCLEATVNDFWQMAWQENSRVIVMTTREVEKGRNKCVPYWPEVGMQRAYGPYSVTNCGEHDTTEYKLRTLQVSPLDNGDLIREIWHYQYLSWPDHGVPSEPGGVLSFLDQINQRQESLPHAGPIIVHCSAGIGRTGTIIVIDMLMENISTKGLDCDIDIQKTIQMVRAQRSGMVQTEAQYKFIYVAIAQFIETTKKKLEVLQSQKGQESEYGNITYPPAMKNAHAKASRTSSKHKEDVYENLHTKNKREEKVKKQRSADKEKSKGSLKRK

What all share (type): biochemical
Holding throughout (conditions): ratio of IC50 values

One test addresses T1, MKP-3 (Homo sapiens, UniProt Q16828).
T1 sequence (Q16828 1-381): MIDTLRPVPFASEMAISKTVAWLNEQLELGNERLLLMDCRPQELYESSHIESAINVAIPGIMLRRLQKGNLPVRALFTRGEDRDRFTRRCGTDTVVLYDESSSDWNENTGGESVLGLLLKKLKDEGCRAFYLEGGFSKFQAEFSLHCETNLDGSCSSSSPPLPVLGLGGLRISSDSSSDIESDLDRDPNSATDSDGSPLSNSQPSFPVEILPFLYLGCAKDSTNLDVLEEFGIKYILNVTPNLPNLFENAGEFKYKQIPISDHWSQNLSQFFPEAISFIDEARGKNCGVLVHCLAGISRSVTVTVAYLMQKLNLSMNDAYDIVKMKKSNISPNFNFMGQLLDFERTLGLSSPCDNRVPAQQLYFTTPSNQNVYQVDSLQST
Nature of the test: Dose-response OMFP phosphatase assay, MKP-3.

The target in a further test is T2, TCPTP (Homo sapiens, UniProt P17706).
T2 sequence (P17706 1-415): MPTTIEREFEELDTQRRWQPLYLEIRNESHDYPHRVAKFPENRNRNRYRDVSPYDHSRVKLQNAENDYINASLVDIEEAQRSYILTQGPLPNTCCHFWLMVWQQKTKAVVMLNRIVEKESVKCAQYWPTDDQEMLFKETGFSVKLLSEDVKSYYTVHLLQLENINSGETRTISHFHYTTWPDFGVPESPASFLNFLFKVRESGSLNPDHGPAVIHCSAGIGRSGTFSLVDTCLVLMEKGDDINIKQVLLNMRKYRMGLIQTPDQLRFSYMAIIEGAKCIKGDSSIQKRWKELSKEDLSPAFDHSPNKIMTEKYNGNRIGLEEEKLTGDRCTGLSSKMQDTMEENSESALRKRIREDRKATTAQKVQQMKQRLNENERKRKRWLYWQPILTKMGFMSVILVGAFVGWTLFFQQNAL
Nature of the test: Dose-response OMFP phosphatase assay, TCPTP. An outline of the steps:
(§1)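 Ten-point 2-fold dilution series of test compound prepared in DMSO. Fluorescence (ex 485/em 528 nm) read in kinetic mode over 10 min; progress-curve slopes taken as activity. IC50 by nonlinear regression (sigmoidal, variable slope).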

Another test concerns the target LYP (Homo sapiens, UniProt Q9Y2R2). Nature of the test: Dose-response OMFP phosphatase assay, LYP.
For the next test, the target named is T3, STEP (Homo sapiens, UniProt P54829).
T3 sequence (P54829 1-565): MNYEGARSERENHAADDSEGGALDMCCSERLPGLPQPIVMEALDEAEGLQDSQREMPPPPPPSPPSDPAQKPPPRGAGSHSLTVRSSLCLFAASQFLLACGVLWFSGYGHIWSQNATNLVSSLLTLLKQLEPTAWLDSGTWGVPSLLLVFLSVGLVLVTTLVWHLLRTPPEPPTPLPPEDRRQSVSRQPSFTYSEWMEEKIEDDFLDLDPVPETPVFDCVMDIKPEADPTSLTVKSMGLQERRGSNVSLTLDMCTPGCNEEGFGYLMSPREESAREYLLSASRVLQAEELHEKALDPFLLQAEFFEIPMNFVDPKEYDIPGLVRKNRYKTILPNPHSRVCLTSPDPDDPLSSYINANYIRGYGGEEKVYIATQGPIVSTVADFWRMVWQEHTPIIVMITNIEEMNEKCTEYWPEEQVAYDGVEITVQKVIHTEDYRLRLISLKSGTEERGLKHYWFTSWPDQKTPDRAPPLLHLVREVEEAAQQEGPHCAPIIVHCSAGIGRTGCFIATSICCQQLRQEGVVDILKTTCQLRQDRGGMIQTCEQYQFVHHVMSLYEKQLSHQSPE
Nature of the test: Dose-response OMFP phosphatase assay, STEP.

A further test deals with T4, CD45 (Homo sapiens, UniProt P08575).
T4 sequence (P08575 26-1306): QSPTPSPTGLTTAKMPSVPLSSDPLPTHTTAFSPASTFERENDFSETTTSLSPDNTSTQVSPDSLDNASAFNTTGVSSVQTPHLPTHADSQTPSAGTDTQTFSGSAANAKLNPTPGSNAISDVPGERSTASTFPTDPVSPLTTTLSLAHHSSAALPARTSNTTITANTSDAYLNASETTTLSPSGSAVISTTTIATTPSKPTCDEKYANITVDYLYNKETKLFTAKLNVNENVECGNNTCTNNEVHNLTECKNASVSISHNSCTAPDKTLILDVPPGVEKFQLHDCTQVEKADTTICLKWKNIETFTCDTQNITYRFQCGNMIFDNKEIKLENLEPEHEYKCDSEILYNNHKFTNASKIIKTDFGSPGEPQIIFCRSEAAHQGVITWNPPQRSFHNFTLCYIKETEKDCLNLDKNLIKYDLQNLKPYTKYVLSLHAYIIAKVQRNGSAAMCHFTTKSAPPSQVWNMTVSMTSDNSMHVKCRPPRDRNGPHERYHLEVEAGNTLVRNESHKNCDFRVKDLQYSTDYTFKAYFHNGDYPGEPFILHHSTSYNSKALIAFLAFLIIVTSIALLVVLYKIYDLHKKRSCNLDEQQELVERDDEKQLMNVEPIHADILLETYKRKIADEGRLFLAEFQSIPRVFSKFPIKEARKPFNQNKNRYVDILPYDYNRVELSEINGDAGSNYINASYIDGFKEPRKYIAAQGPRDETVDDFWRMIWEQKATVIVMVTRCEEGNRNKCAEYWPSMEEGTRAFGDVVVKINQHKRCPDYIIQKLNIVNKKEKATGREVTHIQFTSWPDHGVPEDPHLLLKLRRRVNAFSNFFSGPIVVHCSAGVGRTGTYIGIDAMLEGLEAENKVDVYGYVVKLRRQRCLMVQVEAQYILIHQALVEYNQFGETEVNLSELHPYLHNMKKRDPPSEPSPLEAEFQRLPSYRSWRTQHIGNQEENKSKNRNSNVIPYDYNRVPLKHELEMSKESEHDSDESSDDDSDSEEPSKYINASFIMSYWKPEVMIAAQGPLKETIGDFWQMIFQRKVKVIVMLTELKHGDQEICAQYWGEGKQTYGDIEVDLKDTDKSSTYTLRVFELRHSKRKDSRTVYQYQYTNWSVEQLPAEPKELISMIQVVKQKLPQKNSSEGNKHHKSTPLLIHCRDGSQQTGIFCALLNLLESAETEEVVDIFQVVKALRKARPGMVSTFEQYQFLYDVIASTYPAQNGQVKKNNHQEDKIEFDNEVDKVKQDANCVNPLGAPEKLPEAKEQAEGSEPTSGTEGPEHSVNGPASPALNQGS
Nature of the test: Dose-response OMFP phosphatase assay, CD45. An outline of the steps:
as §1

Another test has as its target SHP1 (Homo sapiens, UniProt P29350). Nature of the test: Dose-response OMFP phosphatase assay, SHP1. The method, boiled down:
as §1

Turning to `O=C(O)c1ccccc1-c1ccc(/C=c2\sc3nc4cc(Br)cnc4n3c2=O)o1` [Compound 1], the “selectivity for HePTP over MKP-3” value at MKP-3 was 25 fold. Also, the “selectivity for HePTP over TCPTP” value on TCPTP was 5 fold. Besides, the “selectivity for HePTP over LYP” value at LYP is on record as 9 fold. For the same compound, the “selectivity for HePTP over STEP” value at STEP is given as 30 fold. In addition, on CD45, the “selectivity for HePTP over CD45” value came out at 15 fold. In addition, the “selectivity for HePTP over SHP1” value at SHP1 stood at 12 fold.
